Biological target: Cannabinoid receptor 1 (Rattus norvegicus, UniProt P20272)
Assay: Displacement of [3H]HU243 from CB1 receptor in Sabra rat brain
Outline: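 Synaptosomal membranes (3-4 µg) from male rat brain (250-300 g) were incubated with [3H]HU-243 for 90 min at 30 °C with test compound or vehicle (fatty-acid-free BSA 0.5 mg/mL final). Bound and free ligand were separated by centrifugation. Nonspecific binding was defined with 50 nM unlabeled HU-243. Ki was obtained by Cheng-Prusoff. Triplicates, three independent experiments.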

Sequences of proteins named here, by UniProt entry; tags and fusion partners are left off.
UniProt P20272, whole entry: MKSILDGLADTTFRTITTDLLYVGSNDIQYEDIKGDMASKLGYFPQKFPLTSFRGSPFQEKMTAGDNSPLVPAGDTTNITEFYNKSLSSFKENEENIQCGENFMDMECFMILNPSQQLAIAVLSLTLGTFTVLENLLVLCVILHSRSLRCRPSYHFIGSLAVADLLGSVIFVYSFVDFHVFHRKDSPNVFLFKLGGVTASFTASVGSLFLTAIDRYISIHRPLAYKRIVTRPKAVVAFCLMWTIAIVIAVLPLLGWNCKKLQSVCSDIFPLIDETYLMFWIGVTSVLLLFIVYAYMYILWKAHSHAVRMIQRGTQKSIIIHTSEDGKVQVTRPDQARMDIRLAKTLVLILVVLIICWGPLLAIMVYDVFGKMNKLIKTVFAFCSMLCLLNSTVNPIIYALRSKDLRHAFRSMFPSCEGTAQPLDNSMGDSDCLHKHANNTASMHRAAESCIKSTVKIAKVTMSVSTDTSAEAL

For C=C(C)[C@@H]1CCC(C)=C[C@H]1c1c(O)cc(CCCCC)cc1O [CANNABIDIOL], the Ki was > 10 µM.

From ChEMBL document CHEMBL1149434, “New cannabidiol derivatives: synthesis, binding to cannabinoid receptor, and evaluation of their antiinflammatory activity” (J Med Chem, 2006)
